Test [1] concerns the target T1, Androgen receptor (Homo sapiens, UniProt P10275).
Test [2] has as its target T1, Androgen receptor. The test is described as follows: biochemical.

Chains of the proteins cited; added tags and fusions are not shown. Lines headed by an entry give the natural chain unless they say otherwise; changes in a name come on top.
UniProt P10275: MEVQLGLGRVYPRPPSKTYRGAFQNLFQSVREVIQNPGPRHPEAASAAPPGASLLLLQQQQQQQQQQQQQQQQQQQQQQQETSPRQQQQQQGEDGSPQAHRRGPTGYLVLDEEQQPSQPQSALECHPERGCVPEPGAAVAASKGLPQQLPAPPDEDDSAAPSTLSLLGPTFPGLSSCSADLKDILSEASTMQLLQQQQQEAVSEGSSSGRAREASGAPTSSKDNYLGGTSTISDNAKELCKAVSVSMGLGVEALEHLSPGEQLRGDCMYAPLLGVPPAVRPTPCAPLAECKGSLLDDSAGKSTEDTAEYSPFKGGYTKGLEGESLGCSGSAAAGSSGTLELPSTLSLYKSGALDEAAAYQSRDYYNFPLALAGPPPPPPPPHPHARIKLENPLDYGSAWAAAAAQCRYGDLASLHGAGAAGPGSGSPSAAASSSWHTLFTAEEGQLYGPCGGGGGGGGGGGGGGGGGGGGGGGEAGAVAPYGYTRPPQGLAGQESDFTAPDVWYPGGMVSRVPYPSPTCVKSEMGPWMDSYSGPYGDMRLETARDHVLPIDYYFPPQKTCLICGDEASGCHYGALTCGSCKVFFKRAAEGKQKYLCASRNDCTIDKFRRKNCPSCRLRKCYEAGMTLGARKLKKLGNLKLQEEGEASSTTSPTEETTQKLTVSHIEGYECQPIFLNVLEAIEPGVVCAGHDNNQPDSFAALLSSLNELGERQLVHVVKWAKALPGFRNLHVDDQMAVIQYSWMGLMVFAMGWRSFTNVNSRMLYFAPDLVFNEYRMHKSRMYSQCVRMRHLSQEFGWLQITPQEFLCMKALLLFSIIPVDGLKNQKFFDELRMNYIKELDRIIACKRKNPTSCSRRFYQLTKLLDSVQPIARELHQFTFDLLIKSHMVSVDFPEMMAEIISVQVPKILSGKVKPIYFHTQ

Here are results for 24 compounds from ChEMBL document CHEMBL1144605, “Discovery of an androgen receptor modulator pharmacophore based on 2-quinolinones” (Bioorg Med Chem Lett, 2007).

As a reminder, the EC50 is the concentration giving half of the maximal effect. Usually Ki stands for a dissociation constant, usually derived from enzyme kinetics or from competition with a known ligand.

For `O=c1cc(C(F)(F)F)c2cc(NCC(F)(F)F)ccc2[nH]1`, in test [1], the concentration giving a half-maximal response (EC50) came to 108 nM. For the same compound, the Ki in test [2] was 16 nM.

`CC(C)(C)CNc1ccc2[nH]c(=O)cc(C(F)(F)F)c2c1` registered a Ki in test [2] of 56 nM.

For `CCc1cc2c(C(F)(F)F)cc(=O)[nH]c2cc1N`, the concentration for a half-maximal effect (EC50) in test [1] is 593 nM. Also, the Ki in test [2] is 20 nM.

Turning to `CCCNc1cc2[nH]c(=O)cc(C(F)(F)F)c2cc1C`, the Ki in test [2] stood at 641 nM.

Consider `CCN(CC(F)(F)F)c1ccc2c(C(F)(F)F)cc(=O)[nH]c2c1`, for which the affinity in test [2], expressed as Ki, was 30 nM.

On to `O=c1cc(C(F)(F)F)c2cc(NCC(F)(F)C(F)(F)F)ccc2[nH]1`, for which a half-maximal response in test [1] (EC50) required 246 nM. The same compound registered a Ki in test [2] of 78 nM.

The compound `Nc1ccc2c(C(F)(F)F)cc(=O)[nH]c2c1` had an EC50 in test [1] of 1300 nM. This compound also registered a Ki in test [2] of 407 nM.

In the case of `CCNc1ccc2c(C(F)(F)F)cc(=O)[nH]c2c1`, the inhibition constant (Ki) in test [2] worked out at 29 nM.

For `Cc1cc2c(C(F)(F)F)cc(=O)[nH]c2cc1N`, in test [2], the Ki is 30 nM.

Consider `Cc1cc2c(C(F)(F)F)cc(=O)[nH]c2cc1NCC(C)C`, for which the Ki in test [2] was determined as 650 nM.

Take `CCCCNc1ccc2c(C(F)(F)F)cc(=O)[nH]c2c1`: the inhibitory constant (Ki) in test [2] came to 50 nM.

In turn, `CC(C)CNc1ccc2c(C(F)(F)F)cc(=O)[nH]c2c1` displayed a Ki in test [2] of 65 nM.

Compound `CC(C)CNc1ccc2[nH]c(=O)cc(C(F)(F)F)c2c1` registered a concentration giving a half-maximal response (EC50) in test [1] of 404 nM. Moreover, in test [2], the affinity, expressed as Ki, was 59 nM.

In test [2], `CCC(C)c1cc2c(C(F)(F)F)cc(=O)[nH]c2cc1N` (stereo unspecified) had an inhibition constant Ki of 13 nM.

For the compound `CN(C)c1ccc2c(C(F)(F)F)cc(=O)[nH]c2c1`, affinity in test [2] was put at a Ki of 761 nM.

`CNc1ccc2c(C(F)(F)F)cc(=O)[nH]c2c1`: in test [2], affinity was put at a Ki of 83 nM.

For `O=c1cc(C(F)(F)F)c2ccc(NCC(F)(F)F)cc2[nH]1`, the response in test [1] was half-maximal at 905 nM (EC50). For the same compound, affinity in test [2] was put at a Ki of 15 nM.

`CCC(C)(C)Nc1ccc2c(C(F)(F)F)cc(=O)[nH]c2c1` came in with a Ki in test [2] of 110 nM.

In test [2], `CCc1cc2c(C(F)(F)F)cc(=O)[nH]c2cc1NC` came in with an inhibitory constant (Ki) of 869 nM.

Consider `CCc1cc2c(C(F)(F)F)cc(=O)[nH]c2cc1NCC(F)(F)F`, for which the affinity in test [2], expressed as Ki, was 157 nM.

As for `CCCN(CC(F)(F)F)c1ccc2c(C(F)(F)F)cc(=O)[nH]c2c1`, the Ki in test [2] amounted to 241 nM.

`CC(C)(C)CNc1ccc2c(C(F)(F)F)cc(=O)[nH]c2c1`: in test [2], affinity was put at a Ki of 134 nM.

`CCN(CC)c1ccc2c(C(F)(F)F)cc(=O)[nH]c2c1` came in with a Ki in test [2] of 463 nM.

`CCCc1cc2c(C(F)(F)F)cc(=O)[nH]c2cc1N` displayed an EC50 in test [1] of 83 nM. For the same compound, in test [2], affinity was put at a Ki of 9 nM.
